Only a part is listed here, and it is no random draw. Records with an inconclusive call do not appear. Activity calls are given as the source filed them. Calls come from the whole dose curve; as a rule, active = well fitted activation curve with a large enough effect; inconclusive = small, poorly fitted or top-dose-only effect; inactive = no such curve, though single readings can be large or run the other way.
Assay: qHTS screen for small molecules that induce genotoxicity in human embryonic kidney (HEK293T) cells expressing luciferase-tagged ELG1; note: % of control where 0% means no effect; nearly all actives have a fitted effect of over 60% in size
Conditions: HEK293T ELG1-luciferase reporter, luminescence, 16 h; at 46 µM (top of the series)
Summary of the method: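 Reporter readout depends on ELG1 protein level, which increases with genetic stress. After 16 hr compound exposure at 37 °C, luciferase activity was quantified using ONE-Glo.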

| SMILES | activity change, positive = activation |
| --- | --- |
| COc1ccc(OP(C)(=O)Nc2cccc(F)c2)cc1 (stereo unspecified) | inactive: -4.68% |
| COc1ccccc1OP(C)(=O)Nc1cc(Cl)ccc1C (stereo unspecified) | inactive: -1.69% |
| Cc1cc(C)cc(OP(C)(N)=O)c1 (stereo unspecified) | inactive: -11.4% |
| CP(=S)(Nn1cnnc1)Oc1ccccc1 (stereo unspecified) | inactive: -2.99% |
| COc1ccccc1OP(C)(=O)Nc1ccccc1 (stereo unspecified) | inactive: -9.24% |
| CP(=O)(Nc1ccccc1Br)Oc1ccccc1 (stereo unspecified) | inactive: 1.08% |
| CP(=O)(Oc1ccccc1)OC(c1ccccc1)C(F)(F)F (stereo unspecified) | inactive: -4.87% |
| Cc1cccc(C)c1OP(C)(=O)Nc1ccc(SC(F)(F)F)cc1 (stereo unspecified) | inactive: -0.0744% |
| CP(=O)(Nc1ccc(SC(F)(F)F)cc1)Oc1ccc(Cl)cc1 (stereo unspecified) | inactive: -3.37% |
| Cc1cc(C)cc(OP(C)(=O)Nc2ccc(SC(F)(F)F)cc2)c1 (stereo unspecified) | inactive: -5.84% |
| CP(=O)(NC(=O)Nc1ccccc1)Oc1ccccc1 (stereo unspecified) | inactive: 2.47% |
| CCc1ccc(OP(C)(=O)N2CCN(c3ccc([N+](=O)[O-])cc3)CC2)cc1 (stereo unspecified) | inactive: -7.71% |
| CCOP(C)(=S)SCC(=O)NC(C)C(=O)O (stereo unspecified) | inactive: 4.46% |
| CCOC(=O)c1ccc(NP(C)(=O)Oc2ccc(OC)cc2)cc1 (stereo unspecified) | inactive: 1% |
| COc1ccc(OP(C)(=O)Nc2ccc(Br)cc2)cc1 (stereo unspecified) | inactive: -0.191% |
| CCN(CC)CC(O)COC(=O)C(O)(c1ccccc1)C1CCCCC1 (stereo unspecified) | inactive: 1.98% |
| CCc1ccc(OP(C)(=O)Nc2cccnc2)cc1 (stereo unspecified) | inactive: 0.107% |
| CP(=O)(Oc1ccccc1)N1CCOC1=O (stereo unspecified) | inactive: -1.46% |
| O=C(OCCCN1CCCC1)C(O)(c1ccccc1)C1CCCCC1 (stereo unspecified) | inactive: -1.39% |

| SMILES | activity change, positive = activation |
| --- | --- |
| COc1ccccc1OP(C)(=O)Nc1c(C)n(C)n(-c2ccccc2)c1=O (stereo unspecified) | inactive: 0.723% |
| CP(=O)(Nc1ccc(Cl)cc1)Oc1ccc(F)cc1 (stereo unspecified) | inactive: -0.271% |
| COc1ccccc1OP(C)(=O)Nc1ccccc1Br (stereo unspecified) | inactive: 1.31% |
| CC(C)(C)c1ccc(OP(C)(=O)O)cc1 | inactive: -6.13% |
| CN(C)C(=O)c1c([N+](=O)[O-])cc([N+](=O)[O-])cc1[N+](=O)[O-] | inactive: -12.8% |
| CP(=O)(OC12CC3CC(CC(C3)C1)C2)OC12CC3CC(CC(C3)C1)C2 | inactive: -3.76% |
| CCOC(=O)c1ccc(NP(C)(=O)Oc2ccc(Cl)cc2)cc1 (stereo unspecified) | inactive: -0.61% |
| Cc1cc(C)cc(OP(C)(=O)Nc2cccc(C(F)(F)F)c2)c1 (stereo unspecified) | inactive: 0.83% |
| COc1ccc(OP(C)(=O)Nc2ccccc2Br)cc1 (stereo unspecified) | inactive: -1.72% |
| COc1ccccc1OP(C)(=O)Nc1ccc(C)c(C)c1 (stereo unspecified) | inactive: 0.584% |
| CP(=O)(Nc1ccc(Cl)cc1Cl)Oc1ccccc1 (stereo unspecified) | inactive: -0.831% |
| CP(=O)(OCCOc1ccccc1)OCCOc1ccccc1 | inactive: -4.44% |
| COc1ccccc1OP(C)(=O)Nc1ccc(Br)cc1 (stereo unspecified) | inactive: -0.439% |
| CN(C)CCOC(=O)C(O)(c1ccccc1)C1CCCC1 (stereo unspecified) | inactive: 0.523% |
| COc1ccc(OP(C)(=O)Nc2ccccn2)cc1 (stereo unspecified) | inactive: -3.26% |
| Cc1c(NP(C)(=O)Oc2ccc(C(C)C)cc2)c(=O)n(-c2ccccc2)n1C (stereo unspecified) | inactive: -1.4% |
| O=[N+]([O-])c1cc([N+](=O)[O-])c(Nc2ccccn2)c([N+](=O)[O-])c1 | inactive: -15.1% |
| CCc1ccc(OP(C)(=O)O)cc1 | inactive: 0.671% |
| COc1ccccc1OP(C)(=O)Nc1ccc(C)cc1C (stereo unspecified) | inactive: 0.275% |

| SMILES | activity change, positive = activation |
| --- | --- |
| CP(=O)(Nc1ccccn1)Oc1ccccc1 (stereo unspecified) | inactive: -1.64% |
| CC(C)c1ccc(OP(C)(=O)Nc2ccc(SC(F)(F)F)cc2)cc1 (stereo unspecified) | inactive: 0.727% |
| CP(=O)(Nc1ccccc1F)Oc1ccccc1 (stereo unspecified) | inactive: 1.02% |
| O=C(OCCN1CCN(CCOCc2ccccc2)CC1)C(O)(c1ccccc1)c1ccccc1 | inactive: -1.23% |
| COc1ccc(OP(C)(=O)Nc2ccc(SC(F)(F)F)cc2)cc1 (stereo unspecified) | inactive: -5.25% |
| CCOC(=O)c1ccc(NP(C)(=O)Oc2ccc(F)cc2)cc1 (stereo unspecified) | inactive: 5.11% |
| CCN(CC)CCCOC(=O)C(O)(c1ccccc1)C1CCCCC1 (stereo unspecified) | inactive: 0.563% |
| CCCCCOc1ccc(NP(C)(=O)Oc2ccc(Cl)cc2Cl)cc1 (stereo unspecified) | inactive: -2.23% |
| CP(=O)(Nc1ccccc1)Oc1ccc(F)cc1 (stereo unspecified) | inactive: -0.668% |
| COc1ccc(OP(C)(=O)Nc2cccc(Br)c2)cc1 (stereo unspecified) | inactive: -0.0377% |
| COc1ccc(NP(C)(=O)Oc2ccccc2OC)cc1 (stereo unspecified) | inactive: 0.26% |
| CN(C)CCOC(=O)C(O)(c1ccccc1)C1CCCCC1 (stereo unspecified) | inactive: -0.854% |
| Cc1cc(-c2cccc3ccccc23)c(C)cn1.O=[N+]([O-])c1cc([N+](=O)[O-])c(O)c([N+](=O)[O-])c1 | inactive: 2.53% |
| O=[N+]([O-])c1ccc(OP2(=O)COCCO2)cc1 (stereo unspecified) | inactive: -0.511% |
| CP(=O)(Nc1ccc(SC(F)(F)F)cc1)Oc1ccc(F)cc1 (stereo unspecified) | inactive: -7.05% |
| CCOP(C)(=S)SCC(=O)NC(C)(CC)C(=O)O (stereo unspecified) | inactive: 0.16% |
| CP(=O)(Nc1ccc2c(c1)OCCO2)Oc1ccccc1 (stereo unspecified) | inactive: 6.59% |
| Cc1ccccc1NP(C)(=O)Nc1ccccc1C | inactive: 4.88% |
